Patent publication US6531481B2 (priority 1998, dated 2003)
Like-named read-outs stand apart in the source and are kept apart here.

Sequences of proteins named here, by UniProt entry; tags and fusion partners are left off. A change or cut given only in a name is not applied to a line headed by its entry. Residues count along the entry.
UniProt P33535, whole entry: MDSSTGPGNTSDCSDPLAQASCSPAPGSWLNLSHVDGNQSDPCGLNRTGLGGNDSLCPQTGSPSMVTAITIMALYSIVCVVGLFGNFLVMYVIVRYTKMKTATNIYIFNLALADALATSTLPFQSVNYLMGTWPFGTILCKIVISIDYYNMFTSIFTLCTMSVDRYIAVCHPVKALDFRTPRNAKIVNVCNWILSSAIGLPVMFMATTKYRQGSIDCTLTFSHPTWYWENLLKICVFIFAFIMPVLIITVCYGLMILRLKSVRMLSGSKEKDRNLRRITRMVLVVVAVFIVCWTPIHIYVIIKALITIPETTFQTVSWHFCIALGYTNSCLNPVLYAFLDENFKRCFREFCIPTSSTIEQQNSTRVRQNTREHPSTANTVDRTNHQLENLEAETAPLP
UniProt P41144: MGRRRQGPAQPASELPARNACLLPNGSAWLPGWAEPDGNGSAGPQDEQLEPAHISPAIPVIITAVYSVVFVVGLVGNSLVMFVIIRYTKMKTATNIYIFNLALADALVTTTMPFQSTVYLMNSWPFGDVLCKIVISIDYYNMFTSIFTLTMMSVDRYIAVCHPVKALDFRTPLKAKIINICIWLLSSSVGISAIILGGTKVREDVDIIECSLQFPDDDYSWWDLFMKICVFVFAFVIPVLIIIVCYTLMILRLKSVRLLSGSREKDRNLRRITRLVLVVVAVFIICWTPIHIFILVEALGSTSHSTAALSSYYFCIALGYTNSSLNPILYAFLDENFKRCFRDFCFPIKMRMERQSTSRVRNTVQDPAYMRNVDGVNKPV
UniProt P33533, whole entry: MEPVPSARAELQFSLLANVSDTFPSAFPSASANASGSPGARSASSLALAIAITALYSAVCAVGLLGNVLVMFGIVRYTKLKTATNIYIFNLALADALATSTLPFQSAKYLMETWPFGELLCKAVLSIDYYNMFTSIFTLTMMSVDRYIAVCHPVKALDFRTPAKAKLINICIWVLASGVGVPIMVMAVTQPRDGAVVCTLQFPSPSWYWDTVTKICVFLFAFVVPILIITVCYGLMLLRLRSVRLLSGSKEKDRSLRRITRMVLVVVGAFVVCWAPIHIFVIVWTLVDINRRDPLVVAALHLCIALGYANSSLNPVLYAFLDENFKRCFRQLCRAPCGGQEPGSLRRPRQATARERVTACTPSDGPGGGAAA
UniProt A0ACM8Q262, 1-400: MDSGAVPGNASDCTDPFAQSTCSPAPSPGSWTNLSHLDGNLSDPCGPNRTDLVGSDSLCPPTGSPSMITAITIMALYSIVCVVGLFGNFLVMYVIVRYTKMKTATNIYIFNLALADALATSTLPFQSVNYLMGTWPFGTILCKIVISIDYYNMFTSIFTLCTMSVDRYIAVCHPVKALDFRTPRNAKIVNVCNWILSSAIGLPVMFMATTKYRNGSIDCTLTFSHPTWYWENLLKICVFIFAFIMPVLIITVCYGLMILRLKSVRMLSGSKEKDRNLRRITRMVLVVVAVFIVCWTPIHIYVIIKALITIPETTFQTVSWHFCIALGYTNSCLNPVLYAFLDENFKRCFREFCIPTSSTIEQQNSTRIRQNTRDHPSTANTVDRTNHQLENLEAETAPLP

What was measured:
[1] = target: mu opioid receptor (Rattus norvegicus, UniProt P33535)
[2] = target: T1, kappa opioid receptor (Cavia porcellus, UniProt P41144); details: for Ki: read-out: Ki [3H]U69,593 (κ)
[3] = target: T2, delta opioid receptor (Rattus norvegicus, UniProt P33533); assay: biochemical
[4] = target: mu opioid receptor (Cavia porcellus, UniProt A0ACM8Q262); assay: Inhibition of DAMGO-stimulated [35S]GTPγS binding in guinea pig caudate; format: biochemical; details: [35S]GTPγS assay
Procedure: [^35S]-GTP-γ-S Binding Assay. Ten frozen guinea pig brains (Harlan Bioproducts for Science, Inc, Indianapolis, Ind.) were thawed, and the caudate putamen were dissected and homogenized in buffer A (3 mL/caudate) (Buffer A=10 mM Tris-HCl, pH 7.4 at 4° C. containing 4 μg/mL leupeptin, 2 μg/mL chymostatin, 10 μg/mL bestatin, and 100 μg/mL bacitracin) using a polytron (Brinkman) at setting 6 until a uniform suspension was achieved. The homogenate was centrifulged at 30,000×g for 10 min at 4° C. and the supernatant discarded. The membrane pellets were washed by resuspension and centrifugation twice more with fresh buffer A, aliquotted into microfuge tubes, and centrifuged in a Tomy refrigerated microfuge (model MTX 150) at maximum speed for 10 min. The supernatants were discarded, and the pellets were stored at −80° C. until assayed.
For the [^35S]GTP-γ-S binding assay, all drug dilutions were made up in buffer B [50 mM TRIS-HCl, pH 7.7/0.1% BSA]. […] Bound radioactivity was counted by liquid scintillation spectroscopy using a Taurus (Micromedic) liquid scintillation counter at 98% efficiency after an overnight extraction in 5 mL Cytoscint scintillation fluid. Nonspecific binding was determined in the presence of 10 μM GTP-γ-S. Assays were performed in triplicate, and each experiment was performed at least 3×.
Data Analysis. […] The Ki values were then determined using the equation: IC50/1+([L]Kd). […]

[5] = target: T1, kappa opioid receptor; parameters: from tissue; details: cited from earlier work
[6] = target: T2, delta opioid receptor; parameters: using rat brain membranes prepared as described; from tissue; host or cells: rat brain membranes; details: cited from earlier work

Compound	slope factor (-nH), value in parentheses, [3H]DAMGO [1]	slope factor (-nH), value in parentheses, [3H]U69,593 [2]	Ki [2] [nM]	μ/κ [2]	also measured
CN1CCC2(c3cccc(O)c3)Cc3ccccc3CC2(C)C1 (racemic) [Compound 7, (±)-1,2,3,4,4a,5,10,10a-octahydro-4a-(3-hydroxyphenyl)-2,10a-dimethylbenzo-[g]isoquinoline]	(1.02 ± 0.07)	(0.87 ± 0.06)			
CC1C2CCCC1(c1cccc(O)c1)CCN2CCc1ccccc1 (stereo not drawn) [Compound 5c, 5-(3-Hydroxyphenyl)-9β-methyl-2-(2′-phenylethyl)-2-azabicyclo[3.3.1]nonane]			14.5 ± 0.99		
CC(C)C[C@@H](CN1CCC(C)(c2cccc(O)c2)C(C)C1)NC(=O)CCc1ccc(O)cc1 (stereo partly drawn) [Compound 24]	(0.91 ± 0.16)	(0.78 ± 0.05)	89.3 ± 7.03	4.5	
CCC(C)[C@@H](CN1CC[C@@](C)(c2cccc(O)c2)[C@@H](C)C1)NC(=O)CCc1ccc(O)cc1 (stereo partly drawn) [Compound 25]	(0.91 ± 0.06)	(0.87 ± 0.02)		47	
CC1CN(C[C@H](Cc2ccccc2)NC(=O)CCc2ccc(O)cc2)CCC1(C)c1cccc(O)c1 (stereo partly drawn) [Compound 27]	(0.89 ± 0.09)	(0.86 ± 0.04)	54.6 ± 3.5	0.17	
CC(C)[C@@H](CN1CC[C@@](C)(c2cccc(O)c2)[C@@H](C)C1)NC(=O)CCc1ccc(O)cc1 [compound 8]					Ki [3]: > 5700 nM
O=C1CC[C@@]2(O)[C@H]3Cc4ccc(O)c5c4[C@@]2(CCN3CC2CC2)[C@H]1O5 [naltrexone]					slope factor (−nH / N), DAMGO [4]: (1.03 ± 0.22)
(+)-N-[trans-4-phenyl-2-butenyl]-(3R,4R)-dimethyl-4-(3-hydroxyphenyl)piperidine [Compound 5a]				0.006	δ/κ [2]: 2.6; slope factor (-nH) [3H]U69,593 [5]: (0.52 ± 0.07); Ki ([5]; read-out: Ki [3H]U69,593 (κ)): 122 ± 11.9 nM; slope factor (-nH) [3H]DADLE [6]: (0.75 ± 0.09); Ki ([6]; read-out: Ki [3H]DADLE (δ)): 322 ± 38.1 nM
N-{(2′S)-[3-(4-Hydroxyphenyl)propanamido]-2′-cyclohexylethyl}-(3R,4R)-dimethyl-4-(3-hydroxyphenyl)piperidine [Compound 26]	(0.84 ± 0.08)	(0.79 ± 0.04)	83.1 ± 5.7	2.8	Ki ([1]; read-out: Ki [3H]DAMGO (μ)): 234 ± 25.2 nM
